The values that follow come from PubChem BioAssay AID1717 (Vanderbilt High Throughput Screening Facility, 2009).

Amino acid sequences for entries named in this document (tags omitted). A change or cut given only in a name is not applied to a line headed by its entry.
UniProt Q9H2X9: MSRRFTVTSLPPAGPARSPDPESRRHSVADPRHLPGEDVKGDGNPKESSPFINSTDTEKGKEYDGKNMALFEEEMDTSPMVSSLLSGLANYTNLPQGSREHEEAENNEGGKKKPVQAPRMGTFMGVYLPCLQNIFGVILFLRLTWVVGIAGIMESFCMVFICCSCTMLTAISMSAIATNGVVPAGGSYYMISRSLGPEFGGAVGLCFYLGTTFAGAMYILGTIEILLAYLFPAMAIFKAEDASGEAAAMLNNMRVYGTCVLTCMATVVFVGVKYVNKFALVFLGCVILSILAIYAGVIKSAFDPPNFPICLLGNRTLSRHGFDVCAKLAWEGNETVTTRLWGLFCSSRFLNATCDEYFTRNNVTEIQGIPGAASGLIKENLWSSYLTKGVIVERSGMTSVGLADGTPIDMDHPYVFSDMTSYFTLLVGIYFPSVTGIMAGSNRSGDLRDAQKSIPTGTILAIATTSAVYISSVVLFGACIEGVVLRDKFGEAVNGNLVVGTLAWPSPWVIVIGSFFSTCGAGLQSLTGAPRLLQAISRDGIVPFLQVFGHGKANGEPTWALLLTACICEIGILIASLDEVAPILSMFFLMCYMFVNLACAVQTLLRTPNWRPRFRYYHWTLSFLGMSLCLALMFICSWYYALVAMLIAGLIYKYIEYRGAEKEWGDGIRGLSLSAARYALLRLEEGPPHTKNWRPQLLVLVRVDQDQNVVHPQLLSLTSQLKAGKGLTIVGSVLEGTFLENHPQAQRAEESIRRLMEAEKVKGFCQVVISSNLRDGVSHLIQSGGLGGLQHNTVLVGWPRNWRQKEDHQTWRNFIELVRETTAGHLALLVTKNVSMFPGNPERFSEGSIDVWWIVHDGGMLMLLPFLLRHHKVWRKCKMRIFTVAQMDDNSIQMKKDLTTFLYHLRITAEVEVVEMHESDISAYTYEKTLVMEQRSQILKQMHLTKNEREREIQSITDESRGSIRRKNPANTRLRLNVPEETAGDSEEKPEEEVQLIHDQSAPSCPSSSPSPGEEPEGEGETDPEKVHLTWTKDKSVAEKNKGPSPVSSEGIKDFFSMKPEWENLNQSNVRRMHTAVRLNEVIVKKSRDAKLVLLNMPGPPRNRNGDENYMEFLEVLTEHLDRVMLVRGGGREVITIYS

The entries are a selection whose mix differs from that of the whole data set. Records with an inconclusive call do not appear. Active and inactive are the calls of the source.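 How the source made its calls: active means thallium flux slope beyond 3 SD from same-plate DMSO control mean in most replicates, usually higher, sometimes lower; inconclusive means repeat tests gave conflicting results; inactive means no significant difference from controls in most replicates.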

For this assay, the target named is Solute carrier family 12 member 5 (Homo sapiens) (UniProt Q9H2X9). Description: KCC2 inhibitors and activators, ouabain retest, confirmation, HEK-KCC2 cells (AID 1717).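 Further: slope of initial-normalized fluorescence between seconds 10 and 20 after thallium.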 Particulars: HEK293-KCC2, thallium flux FluoZin2 fluorescence, at 10 µM, bidirectional: low = inhibitor, high = activator.
Consider `O=c1c2cc([N+](=O)[O-])ccc2[nH]c2c([N+](=O)[O-])cc([N+](=O)[O-])cc12`, for which the raw Tl+ flux slope (below DMSO = inhibition, above = activation) was active: 0.0263.

For the compound `C[N+]1=C2C=CC=CC=C2SC12C([N+](=O)[O-])=CC([N+](=O)[O-])=C[C-]2[N+](=O)[O-]` (stereo not drawn), the raw Tl+ flux slope (below DMSO = inhibition, above = activation) is active: 0.0285.

For `O=P(Nc1nc2ccc(Cl)cc2s1)(c1ccccc1)c1ccccc1`, the raw Tl+ flux slope (below DMSO = inhibition, above = activation) is active: 0.023.
